In patent US9193736B2, “PDE 10a inhibitors for the treatment of type II diabetes” (Janssen Pharmaceutica, NV, priority 2013, dated 2015):
Counter-ions that a name gives are not always drawn.

By UniProt entry, the sequences of proteins in these tests, tags left out. Where a name states a change or a piece, a line headed by the entry shows the natural chain unless it says otherwise. Residues count along the entry.
UniProt Q9QYJ6: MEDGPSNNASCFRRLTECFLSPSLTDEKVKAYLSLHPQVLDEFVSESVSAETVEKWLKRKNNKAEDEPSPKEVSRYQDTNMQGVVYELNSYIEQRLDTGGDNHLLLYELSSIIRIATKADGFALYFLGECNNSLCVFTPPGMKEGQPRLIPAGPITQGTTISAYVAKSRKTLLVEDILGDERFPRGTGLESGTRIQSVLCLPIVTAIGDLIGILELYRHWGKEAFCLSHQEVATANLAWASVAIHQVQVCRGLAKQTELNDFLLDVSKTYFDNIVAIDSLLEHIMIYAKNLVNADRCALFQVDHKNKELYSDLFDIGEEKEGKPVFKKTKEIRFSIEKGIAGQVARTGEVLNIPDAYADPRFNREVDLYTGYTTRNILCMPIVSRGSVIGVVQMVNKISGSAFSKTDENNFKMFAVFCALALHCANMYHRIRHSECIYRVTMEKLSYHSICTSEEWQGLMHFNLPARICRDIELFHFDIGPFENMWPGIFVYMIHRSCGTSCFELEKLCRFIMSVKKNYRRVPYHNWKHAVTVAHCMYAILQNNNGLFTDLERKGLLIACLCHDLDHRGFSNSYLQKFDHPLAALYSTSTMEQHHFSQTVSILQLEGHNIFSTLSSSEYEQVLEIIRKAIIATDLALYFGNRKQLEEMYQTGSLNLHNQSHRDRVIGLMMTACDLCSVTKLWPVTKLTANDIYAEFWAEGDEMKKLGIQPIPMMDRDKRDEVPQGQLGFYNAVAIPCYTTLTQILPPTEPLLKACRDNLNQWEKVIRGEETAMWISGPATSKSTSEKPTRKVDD
UniProt Q9Y233, 267-1055: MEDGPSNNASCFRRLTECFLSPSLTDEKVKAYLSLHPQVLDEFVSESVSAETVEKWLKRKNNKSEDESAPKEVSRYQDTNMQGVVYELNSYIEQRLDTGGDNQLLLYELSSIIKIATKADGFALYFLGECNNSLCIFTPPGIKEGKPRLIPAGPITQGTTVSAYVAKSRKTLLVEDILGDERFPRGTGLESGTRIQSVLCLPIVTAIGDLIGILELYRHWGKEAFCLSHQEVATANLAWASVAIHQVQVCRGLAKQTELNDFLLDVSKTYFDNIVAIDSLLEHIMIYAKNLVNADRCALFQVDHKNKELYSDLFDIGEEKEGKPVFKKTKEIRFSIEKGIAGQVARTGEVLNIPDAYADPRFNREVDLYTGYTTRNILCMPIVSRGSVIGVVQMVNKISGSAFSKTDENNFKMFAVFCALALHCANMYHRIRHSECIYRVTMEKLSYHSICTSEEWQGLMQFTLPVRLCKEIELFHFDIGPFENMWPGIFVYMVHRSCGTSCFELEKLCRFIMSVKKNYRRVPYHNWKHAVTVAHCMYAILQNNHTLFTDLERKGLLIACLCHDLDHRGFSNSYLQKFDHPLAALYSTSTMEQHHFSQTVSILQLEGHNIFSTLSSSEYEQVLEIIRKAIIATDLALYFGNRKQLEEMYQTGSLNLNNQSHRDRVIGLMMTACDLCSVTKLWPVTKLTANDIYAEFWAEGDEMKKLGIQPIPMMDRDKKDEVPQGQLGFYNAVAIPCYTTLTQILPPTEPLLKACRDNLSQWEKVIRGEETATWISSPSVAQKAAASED

Assays:
[1] = target: Rat recombinant PDE10a (rPDE10a) (Rattus norvegicus (Rat), UniProt Q9QYJ6); assay: In vitro assay PDE10a: rat recombinant PDE10a SPA with 3H-cAMP substrate, IC50; format: biochemical; conditions: 60 nM cAMP, read-out: rPDE10a2 IC50
Procedure: In Vitro Assay PDE10a Rat recombinant PDE10a (rPDE10a) was expressed in Sf9 cells using a recombinant rPDE10a baculovirus construct. Cells were harvested after 48 h of infection and the rPDE10a protein was purified by metal chelate chromatography on Ni-sepharose 6FF. Tested compounds were dissolved and diluted in 100% DMSO to a concentration 100 fold of the final concentration in the assay. […] The reaction was incubated for 60 min at rt. After incubation, the reaction was stopped with 20 μL of 17.8 mg/mL PDE SPA beads. […] For blank values the enzyme was omitted from the reaction and replaced by incubation buffer. […] A best fit curve was fitted by a minimum sum of squares method to the plot of % of control value subtracted with blank value versus compound concentration and the half maximal inhibitory concentration (IC50) value was derived from this curve.

[2] = target: Human recombinant PDE10A2 (Homo sapiens (Human), UniProt Q9Y233); assay: In vitro hPDE10a: human recombinant PDE10A2 scintillation proximity assay, IC50; format: biochemical; conditions: human recombinant PDE10A2, SPA, 60 nM cAMP; read-out: hPDE10a2 IC50
Procedure: In Vitro hPDE10a […] Cells were harvested and the phosphodiesterase protein was purified by metal chelate chromatography on Ni-sepharose 6FF. The affinity of the compounds of Formula (I) for phophodiesterases (PDE) was measured by a scintillation proximity assay (SPA). PDE Yttrium Silicate SPA beads allow PDE activity to be measured by direct binding of the primary phosphate groups of non-cyclic AMP or GMP to the beads via a complex iron chelation mechanism. The amount of bound tritiated product ([^3H]-AMP) is measured by liquid scintillation counting. The compounds were dissolved and diluted in 100% DMSO in polystyrene plates to a concentration of 100-fold the final concentration in the assay. […] After incubation, the reaction was stopped with 20 μL of stop solution, consisting of PDE SPA beads (17.8 mg beads/mL in 18 mM zinc sulphate). […] To measure the low control, no enzyme was added to the reaction mixture. Data were calculated as the percentage of inhibition of total activity measured in the absence of test compound (% control). […] For compounds tested more than once, the data points were aggregated.

IC50 [1]	IC50 [2]	Compound
16 nM		O=C(O)c1ccc(-c2c(/C=C/c3ccc4c(n3)CCCC4)nc3c(N4CCOCC4)ccnn23)cn1 [Cpd 107, (E)-5-(8-morpholino-2-(2-(5,6,7,8-tetrahydroquinolin-2-yl)vinyl)imidazo[1,2-b]pyridazin-3-yl)picolinic acid trifluoroacetic acid salt]
16 nM	< 1 nM	2-[(E)-2-(6-Chloro-8-morpholin-4-ylimidazo[1,2-b]pyridazin-2-yl)ethenyl]-Nethylsulfonyl)quinoline-4-carboxamide [Cpd 127]
